uPA surface inh – cell surface uPA generation inhibition; Potency, µM (doses to about 38.3 µM), without a hit: top-dose activity change, negative = inhibition, usual class: inhibitors; AID 540303; cell surface uPA generation assay, qHTS; actives 0.31% (n = 330,000); active = well fitted inhibition curve with a large enough effect; inconclusive = small, poorly fitted or top-dose-only effect; inactive = no such curve, though single readings can be large or run the other way; tested in mouse RAW 264.7 cells; also: potency is read from the fitted curve at half-maximal effect; % is scaled to controls: 0 for no effect and ±100 for the full control effect; nearly all actives have a fitted effect of over 55% in size
DT40 TDP1 CPT – DT40-hTDP1 cell growth loss with CPT | chicken DT40 Tdp1-/-;hTDP1 cells + 20 nM CPT, ATP luminescence, 48 h | Potency, µM (series often up to 46.2 µM), for inactives: top-dose activity change, negative = growth inhibition, usual class: inhibitors | actives 12% (n = 420,000); also: potency is read from the fitted curve at half-maximal effect; % is scaled to controls: 0 for no effect and ±100 for the full control effect; nearly all actives have a fitted effect of over 55% in size
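Chicken DT40 Tdp1-/- cells complemented with human TDP1, 400 cells/well, exposed to compounds plus 20 nM camptothecin for at least 48 h at 37 C; viability read as ATP content by CellTiter-Glo luminescence.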
miR-21 reporter – miR-21 reporter, rising signal; HeLa miR-21 FLuc reporter, luciferase, 48 h; Potency, µM (highest dose often 38.3 µM), for the others: top-dose reporter change, positive = more light; 340,000 tested, under 10 active; AID 2288; active = well fitted rising curve with a large enough effect; inconclusive = small, poorly fitted or top-dose-only effect; inactive = no such curve, though single readings can be large or run the other way;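 further: % of control where 0% means no effect; miR-21 action dims this reporter so a rising signal means less miR-21 action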
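Luminescence from a firefly luciferase reporter carrying a miR-21 binding site downstream, stably expressed under a CMV promoter in HeLa cells that make miR-21 endogenously, reports miRNA modulation after 48 h compound exposure up to approximately 40uM final.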
TDP1 inh – blocks human tyrosyl-DNA phosphodiesterase 1; recombinant TDP1, AlphaScreen DNA substrate cleavage; Potency, µM (titrated, usually from 130 µM), without a hit: at the top dose activity change, negative = inhibition, actives largely listed as inhibitors; actives 0.28% (n = 350,000); AID 485290; also: potency is read from the fitted curve at half-maximal effect; % is scaled to controls: 0 for no effect and ±100 for the full control effect; nearly all actives have a fitted effect of over 40% in size
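Steps: enzyme plus compound, 15 min RT; add biotin/phosphotyrosine-FITC oligonucleotide (15 nM final), react 5 min; add donor/acceptor beads (10 ug/ml final), 10 min; read AlphaScreen. Tdp1 at 1 nM final.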
DT40 TDP1 no CPT – qHTS for Inhibitors of human tyrosyl-DNA phosphodiesterase 1 (TDP1): qHTS in cells in absence of CPT; DT40 Tdp1-/- hTDP1 cells, no CPT, ATP luminescence, 48 h; Potency, µM (highest dose often 46.2 µM), for inactives: at the highest dose activity change, negative = growth inhibition, usual class: inhibitors; actives 15% (n = 420,000); also: potency is read from the fitted curve at half-maximal effect; % is scaled to controls: 0 for no effect and ±100 for the full control effect; nearly all actives have a fitted effect of over 55% in size
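Cells were dispensed at 400 per well, compounds added by pin tool, plates incubated ≥48 hr at 37 °C, then CellTiter-Glo added for 30 min at room temperature before luminescence reading. Line: DT40 Tdp1-/- complemented with hTDP1; camptothecin omitted.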
An asterisk follows results filed as active; ? = inconclusive; . = not tested or not shown; [ ] = remark or other dose. A selection: hits, their analogues and other compounds. The true share with any hit is near 16%. Unless noted, calls follow the shape of the dose curve; as a rule, active = well fitted curve in the direction sought with a large enough effect; inconclusive = small, poorly fitted or top-dose-only effect, or another doubt; inactive = no such curve, though single readings can be large; an effect the other way counts as inactive or inconclusive.

Keys – A = uPA surface inh; B = DT40 TDP1 CPT; C = miR-21 reporter; D = TDP1 inh; E = DT40 TDP1 no CPT
> O=C(NCC(c1cccnc1)N1CCc2ccccc2C1)C(=O)Nc1ccc(F)cc1F (configuration not stated)
  A: .	B: 15µM*	C: -11%	D: 0%	E: 18µM*

> N#Cc1ccccc1NC(=O)C(=O)NCC(c1cccnc1)N1CCc2ccccc2C1 (configuration not stated)
  A: .	B: ?	C: -5%	D: 4%	E: ?

> CC(=O)Nc1ccc(NC(=O)C(=O)NCC(c2ccco2)N2CCc3ccccc3C2)cc1 (configuration not stated)
  A: 0%	B: 16µM*	C: .	D: .	E: 21µM*

> Cc1nc2c(c(=O)n1CCC1=CCCCC1)c1nc3ccccc3nc1n2/N=C/c1ccco1
  A: 9%	B: 16µM*	C: -7%	D: .	E: 23µM*

> COCCn1cnc2c(c1=O)c1nc3ccccc3nc1n2/N=C/c1ccco1
  A: -6%	B: ?	C: 4%	D: .	E: ?

> COCCn1cnc2c(c1=O)c1nc3ccccc3nc1n2/N=C/c1ccc(OC)c(OC)c1
  A: 3%	B: 18µM*	C: 9%	D: -1%	E: 16µM*

> CCCCn1c2nc3ccccc3nc2c2c(=O)n(CCC)cnc21
  A: 6%	B: ?	C: 0%	D: 6%	E: ?

> COCCCn1cnc2c(c1=O)c1nc3ccccc3nc1n2CCc1ccccc1
  A: -3%	B: ?	C: -8%	D: 1%	E: 18µM*

> CCCCCCn1cnc2c(c1=O)c1nc3ccccc3nc1n2/N=C/c1ccco1
  A: 7%	B: ?	C: -9%	D: 5%	E: 18µM*

> COC(=O)c1ccc(C(=O)OC)c(NC(=S)N2CCN(c3ccccn3)CC2)c1
  A: 2%	B: -6%	C: -3%	D: 3%	E: -12%

> N#CCCN(C(=O)COC(=O)/C=C/c1cccs1)c1ccccc1
  A: -3%	B: -2%	C: .	D: 1%	E: -9%

> CCCC(=O)NC(c1cccc([N+](=O)[O-])c1)c1ccc2cccnc2c1O (configuration not stated)
  A: .	B: 12µM*	C: .	D: .	E: 2.9µM*

> CC(C)C(=O)NC(c1cccc([N+](=O)[O-])c1)c1ccc2cccnc2c1O (configuration not stated)
  A: 3%	B: 4.6µM*	C: ?	D: .	E: 4.6µM*

> c1ccc(OCc2nc3c4c(ncn3n2)-c2ccccc2CC42CCCC2)cc1
  A: 2%	B: ?	C: -3%	D: 0%	E: ?

> C=CCOc1ccc2nc(NC(=O)OC)[nH]c2c1
  A: -12%	B: 0.65µM*	C: 6%	D: 4%	E: 0.82µM*

> C=C(c1ccc2nc(NC(=O)OC)[nH]c2c1)c1cccs1
  A: -15%	B: 0.73µM*	C: .	D: .	E: 0.82µM*

> CCOc1ccc2nc(NCCO)[nH]c2c1
  A: -4%	B: -16%	C: -6%	D: 5%	E: -23%

> CCCCc1ccc2nc(NC(=O)OC)[nH]c2c1
  A: .	B: 0.072µM*	C: .	D: 12%[21 µM]	E: 0.057µM*

> Cc1ccc(C)c(SCC(=O)N(C)C2CCS(=O)(=O)C2)c1 (configuration not stated)
  A: -4%	B: -6%	C: .	D: 0%	E: 2%

> Clc1ccc(SCCN2CCNCC2)cc1
  A: ?	B: ?	C: -5%	D: 3%	E: 18µM*

> Clc1ccc(OCCN2CCCCC2)c(Cl)c1
  A: -1%	B: -8%	C: -8%	D: -2%	E: -21%

> Clc1ccc(OCCCN2CCCCC2)c(Br)c1
  A: 0%	B: ?	C: -50%	D: -1%	E: ?

> Clc1ccc(Cl)c(OCCCCN2CCNCC2)c1
  A: -8%	B: 5.8µM*	C: -16%	D: 7%	E: ?

> CCN1CCN(CCCOc2ccc(Cl)cc2Br)CC1
  A: -1%	B: ?	C: 0%	D: 5%	E: 16µM*

> Clc1ccc(SCCCN2CCCCC2)cc1
  A: -17%	B: -7%	C: -6%	D: .	E: ?

Record cards, as listed above:
Record of O=C(NCC(c1cccnc1)N1CCc2ccccc2C1)C(=O)Nc1ccc(F)cc1F (configuration not stated) : uPA surface inh: .; DT40 TDP1 CPT: 15µM*; miR-21 reporter: -11%; TDP1 inh: 0%; DT40 TDP1 no CPT: 18µM*
Record of COCCCn1cnc2c(c1=O)c1nc3ccccc3nc1n2CCc1ccccc1 : uPA surface inh: -3%; DT40 TDP1 CPT: ?; miR-21 reporter: -8%; TDP1 inh: 1%; DT40 TDP1 no CPT: 18µM*

Further entries follow.
Keys – A = uPA surface inh; B = DT40 TDP1 CPT; C = miR-21 reporter; D = TDP1 inh; E = DT40 TDP1 no CPT
> Clc1ccc(OCCCCCN2CCCC2)c(Br)c1
  A: 8%	B: ?	C: -14%	D: -5%	E: 23µM*

> CC(C(=O)c1ccccc1)C(O)c1ccccn1 (configuration not stated)
  A: 1%	B: -13%	C: .	D: .	E: ?

> CC(NC(=O)Cn1cc(C(=O)C2CC2)c2ccccc21)c1ccccc1 (configuration not stated)
  A: 5%	B: ?	C: 0%	D: 3%	E: -21%

> OCC(O)/C=N/Nc1nc(N2CCCCC2)nc(N2CCCCC2)n1 (configuration not stated)
  A: 7%	B: -19%	C: 1%	D: 4%	E: 17%

> O=C(CSc1nnc(-c2cccnc2)s1)Nc1ccnc2ccccc12
  A: -4%	B: 1.2µM*	C: 25%	D: 5%	E: 0.52µM*

> CCC(CC)C(=O)Nc1ccc2nc(SCC(=O)N3CCc4ccccc43)sc2c1
  A: .	B: 4.6µM*	C: 24%	D: -2%	E: 5.2µM*

> CC(C)CC(=O)Nc1ccc2nc(SCC(=O)N3CCc4ccccc43)sc2c1
  A: .	B: 5.2µM*	C: ?	D: 4%	E: 2.9µM*

> CC(C)C(=O)Nc1ccc2nc(SCC(=O)N3CCc4ccccc43)sc2c1
  A: .	B: 10µM*	C: 22%	D: -4%	E: 4.1µM*

> CCOC(=O)C1CCN(C(c2cccc(OC)c2)c2sc3nc(C)nn3c2O)CC1 (configuration not stated)
  A: -11%	B: -6%	C: -10%	D: 2%	E: -21%

> CC(C)(C)NC(=O)N1CCN(c2nc(-c3ccccc3)ns2)CC1
  A: -2%	B: ?	C: -35%	D: 0%	E: ?

> CC(NS(=O)(=O)c1ccccc1)C(c1cccs1)N1CCOCC1 (configuration not stated)
  A: -1%	B: -3%	C: -11%	D: -4%	E: 4%

> COc1ccc(N2CCN(C(c3cccs3)C(C)NC(=O)C(=O)N3CCCCC3)CC2)cc1 (configuration not stated)
  A: -3%	B: -14%	C: 1%	D: 5%	E: -4%

> CCS(=O)(=O)NC(C)C(c1cccs1)N1CCN(c2ccc(OC)cc2)CC1 (configuration not stated)
  A: -4%	B: 21µM*	C: 16%	D: 1%	E: 23µM*

> COc1ccc(N2CCN(C(c3cccs3)C(C)NC(=O)C(=O)N3CCCC3)CC2)cc1 (configuration not stated)
  A: 3%	B: 16µM*	C: 9%	D: 6%	E: ?

> CC(NS(=O)(=O)c1ccc(Br)cc1)C(c1cccs1)N1CCOCC1 (configuration not stated)
  A: 2%	B: 18µM*	C: -4%	D: .	E: ?

> COc1ccc(N2CCN(C(c3cccs3)C(C)NS(=O)(=O)c3ccccc3)CC2)cc1 (configuration not stated)
  A: -8%	B: 21µM*	C: 22%	D: 6%	E: 13µM*

> CC(NS(C)(=O)=O)C(c1cccs1)N1CCN(c2ccccc2)CC1 (configuration not stated)
  A: -1%	B: -1%	C: -9%	D: 2%	E: -7%

> NC(=S)N/N=C1\CC(n2nnnc2-c2ccccc2)C2COC1O2 (configuration not stated)
  A: -2%	B: -19%	C: 0%	D: 5%	E: -1%

> Cc1nc(SCc2ccc(Cl)cc2)ncc1C(=O)O
  A: 6%	B: 7%	C: -3%	D: -1%	E: 2%

> Cc1nnn(-c2nonc2N)c1C(=O)NNC(=O)c1ccc(Cl)c(Cl)c1
  A: -2%	B: ?	C: -1%	D: -1%	E: ?
